Test system: influenza A/WSN/33 virus

SMILES: CCN1/C(=C/C(C)=O)Sc2ccc(OC)cc21 [TG003]
- Influenza virus propagation inhibited: more than 93%
- reduces influenza virus replication: more than two orders of magnitude

Source: patent publication US8933046B2 (priority 2009, dated 2015)
